{"sequences": {"note": "Sequences of proteins named here, by UniProt entry; tags and fusion partners are left off.", "UniProt P06276, whole entry": "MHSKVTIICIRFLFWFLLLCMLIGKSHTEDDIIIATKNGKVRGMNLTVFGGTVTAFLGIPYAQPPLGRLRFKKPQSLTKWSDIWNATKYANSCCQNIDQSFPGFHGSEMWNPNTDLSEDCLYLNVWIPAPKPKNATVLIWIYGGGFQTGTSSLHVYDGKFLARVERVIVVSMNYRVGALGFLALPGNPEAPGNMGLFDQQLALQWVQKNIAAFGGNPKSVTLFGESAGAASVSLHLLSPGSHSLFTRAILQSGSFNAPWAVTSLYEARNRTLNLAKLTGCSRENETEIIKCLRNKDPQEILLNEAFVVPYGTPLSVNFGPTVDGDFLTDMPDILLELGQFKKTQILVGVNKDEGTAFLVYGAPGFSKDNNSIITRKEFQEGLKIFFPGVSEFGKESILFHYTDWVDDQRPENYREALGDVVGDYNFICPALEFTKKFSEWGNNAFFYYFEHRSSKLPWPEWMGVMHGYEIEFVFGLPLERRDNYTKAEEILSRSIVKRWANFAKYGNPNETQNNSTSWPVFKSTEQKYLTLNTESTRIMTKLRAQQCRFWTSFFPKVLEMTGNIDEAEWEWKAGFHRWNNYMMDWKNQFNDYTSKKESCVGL"}, "source": "ChEMBL document CHEMBL4433202", "about": "“Design and development of multitarget-directed N-Benzylpiperidine analogs as potential candidates for the treatment of Alzheimer's disease” (Eur J Med Chem, 2019)", "molecular_target": "Cholinesterase (Homo sapiens, UniProt P06276)", "experiment": "Inhibition of human serum butyrylcholinesterase using BTCI as substrate pre-incubated for 10 mins followed by substrate addition and measured for 6 mins by Ellman's method"}
{"smiles": "CCN(C)C(=O)Oc1cccc([C@H](C)N(C)C)c1", "note": "[RIVASTIGMINE]", "values": [{"measurement": "IC50", "value": 1100, "unit": "nM"}]}
